Measured values: ChEMBL document CHEMBL3817845, “Development of CNS multi-receptor ligands: Modification of known D2 pharmacophores” (Bioorg Med Chem, 2016)

By UniProt entry, the sequences of proteins in these tests, tags left out.
UniProt P08908, whole entry: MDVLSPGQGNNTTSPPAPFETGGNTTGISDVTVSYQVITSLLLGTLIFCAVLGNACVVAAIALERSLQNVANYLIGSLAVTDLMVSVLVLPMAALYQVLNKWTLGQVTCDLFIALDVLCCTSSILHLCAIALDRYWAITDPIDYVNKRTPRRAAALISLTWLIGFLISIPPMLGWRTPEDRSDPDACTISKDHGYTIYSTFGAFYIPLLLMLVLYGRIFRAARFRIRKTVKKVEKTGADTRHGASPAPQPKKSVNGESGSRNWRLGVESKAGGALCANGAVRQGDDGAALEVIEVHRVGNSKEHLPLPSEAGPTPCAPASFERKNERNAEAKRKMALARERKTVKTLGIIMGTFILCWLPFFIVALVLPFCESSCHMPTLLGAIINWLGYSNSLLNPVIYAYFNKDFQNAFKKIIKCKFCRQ
UniProt P28223, whole entry: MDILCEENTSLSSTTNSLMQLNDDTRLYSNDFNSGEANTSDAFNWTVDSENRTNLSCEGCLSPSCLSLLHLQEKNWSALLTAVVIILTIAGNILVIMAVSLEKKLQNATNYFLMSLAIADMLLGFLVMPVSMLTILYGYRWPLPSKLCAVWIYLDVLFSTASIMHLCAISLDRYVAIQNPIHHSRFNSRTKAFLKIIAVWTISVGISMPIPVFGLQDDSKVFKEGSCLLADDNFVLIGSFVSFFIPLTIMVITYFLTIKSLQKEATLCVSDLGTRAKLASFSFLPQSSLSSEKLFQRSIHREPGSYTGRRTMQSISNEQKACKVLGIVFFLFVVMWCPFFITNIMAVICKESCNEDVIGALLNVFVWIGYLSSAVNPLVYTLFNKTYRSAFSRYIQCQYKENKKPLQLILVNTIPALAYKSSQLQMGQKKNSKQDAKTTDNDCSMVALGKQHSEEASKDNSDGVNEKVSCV

How the values were obtained:
[1] = biological target: 5-hydroxytryptamine receptor 1A (Homo sapiens, UniProt P08908); assay: Displacement of [3H]8-OH-DPAT from human recombinant 5HT1A receptor incubated for […] by microbeta scintillation counting method
[2] = biological target: 5-hydroxytryptamine receptor 2A (Homo sapiens, UniProt P28223); assay: Displacement of [3H]Ketanserin from human recombinant 5HT2A receptor incubated for […] by microbeta scintillation counting method
Note: test concentration or dose not given here.

## O=c1[nH]c2cc(Cl)ccc2n1C1CCN(CCCCc2c[nH]c3ccccc23)CC1
[1]
  inhibition: < 50%
[2]
  inhibition: < 50%
